Measured values: ChEMBL document CHEMBL4402585 (J Med Chem, 2020)

Molecular target: Bromodomain-containing protein 4 (Homo sapiens, UniProt O60885)
Note: test concentration or dose not given here.

Cc1cc(-c2cc(NS(C)(=O)=O)ccc2Oc2ccccc2)n2c1C(=O)NCC2
ΔTm: > 1 °C
